According to publication PMC6936329 (Cell chemical biology, 2019):

Tests used:
[1] = tested on: 468 DNA-tagged recombinant kinase library; assay: KINOMEscan profiling; assay type: binding; conditions: 0.1 and 1 μM
[2] = tested on: 34 breast cancer cell lines; assay: GR dose-response measurements; conditions: on average
MCF7 cells = assay: Phospho-pRb immunofluorescence and cell cycle analysis
[3] = tested on: kinases in mixed cell lysate; assay: Multiplexed inhibitor bead mass spectrometry

## CCN1CCN(Cc2ccc(Nc3ncc(F)c(-c4cc(F)c5nc(C)n(C(C)C)c5c4)n3)nc2)CC1 [abemaciclib]
[1]
  selectivity among CDK4/6 inhibitors: least
CDK1/cyclin B
  fold less potent than alvocidib: ~ 10 fold
CDK7/cyclin H
  fold less potent than alvocidib: ~ 10 fold
CDK9/cyclin K/T1
  fold less potent than alvocidib: ~ 10 fold
pRb-deficient cell lines
  concentrations at which cytotoxicity was observed: ≥ 1000 nM
[2]
  fold more potent than palbociclib at inducing cytostasis: ~ 5.5 fold
MCF7 cells
  concentration at which pRb phosphorylation remained low: ≥ 1 μM
[3]
  selectivity among CDK4/6 inhibitors tested: least
